From patent US20050282943A1, “Solubilized additive composition comprising acidic and basic constituents” (INVISTA NORTH AMERICA S.A R.L., priority 2004, published 2005)

Columns and labels:
[1] = Dissolution of additive salt in water / caprolactam solvent medium (visual); type: physicochemical; details: Nylostab SEED 4.43 g + isophthalic acid 1.66 g in 4.43 g caprolactam / 11.6 g demineralized water (Example 4)
Description: Caprolactam (4.43 g) was dissolved in 11.6 g demineralized water. […] The solution was about 20 w % Nylostab SEED and 20 w % Caprolactam.

[2] = Dissolution of water insoluble additive in demineralized water on adding a counterpart salt forming species (visual)
[3] = Irganox 1310 0.278 g + 2-methylpentamethylenediamine 0.116 g in 1 g demineralized water (Example 8)

additive content of solution ([2]; Example 8, 3 g water, 0.232 g 2-methylpentamethylenediamine in total)	dissolution (observation) ([2]; Example 8, 3 g water, after an additional 0.116 g 2-methylpentamethylenediamine)	additive content of solution [2, 3]	Structure (SMILES)	dissolution (observation) [1]	dissolution (observation) [2, 3]
			CC1(C)CC(NC(=O)c2cccc(C(=O)NC3CC(C)(C)NC(C)(C)C3)c2)CC(C)(C)N1 [Nylostab SEED, N,N′-bis(2,2,6,6-tetramethyl-4-piperidinyl)-1,3-benzenedicarboxamide]	dissolved to form a stable, clear colourless solution	
about 8 w %	the precipitate dissolved	about 20 w %	CC(C)(C)c1cc(CCC(=O)O)cc(C(C)(C)C)c1O [Irganox 1310, 3-(3,5-di-t-butyl-4-hydroxyphenyl)propionic acid]		dissolved to form a clear colourless solution
